Reference: ChEMBL document CHEMBL1140497, “The molecular pruning of a phosphoramidate peptidomimetic inhibitor of prostate-specific membrane antigen” (Bioorg Med Chem, 2007)

The chains behind the UniProt entries cited, without tags or fusion partners.
UniProt Q04609, whole entry, looked up: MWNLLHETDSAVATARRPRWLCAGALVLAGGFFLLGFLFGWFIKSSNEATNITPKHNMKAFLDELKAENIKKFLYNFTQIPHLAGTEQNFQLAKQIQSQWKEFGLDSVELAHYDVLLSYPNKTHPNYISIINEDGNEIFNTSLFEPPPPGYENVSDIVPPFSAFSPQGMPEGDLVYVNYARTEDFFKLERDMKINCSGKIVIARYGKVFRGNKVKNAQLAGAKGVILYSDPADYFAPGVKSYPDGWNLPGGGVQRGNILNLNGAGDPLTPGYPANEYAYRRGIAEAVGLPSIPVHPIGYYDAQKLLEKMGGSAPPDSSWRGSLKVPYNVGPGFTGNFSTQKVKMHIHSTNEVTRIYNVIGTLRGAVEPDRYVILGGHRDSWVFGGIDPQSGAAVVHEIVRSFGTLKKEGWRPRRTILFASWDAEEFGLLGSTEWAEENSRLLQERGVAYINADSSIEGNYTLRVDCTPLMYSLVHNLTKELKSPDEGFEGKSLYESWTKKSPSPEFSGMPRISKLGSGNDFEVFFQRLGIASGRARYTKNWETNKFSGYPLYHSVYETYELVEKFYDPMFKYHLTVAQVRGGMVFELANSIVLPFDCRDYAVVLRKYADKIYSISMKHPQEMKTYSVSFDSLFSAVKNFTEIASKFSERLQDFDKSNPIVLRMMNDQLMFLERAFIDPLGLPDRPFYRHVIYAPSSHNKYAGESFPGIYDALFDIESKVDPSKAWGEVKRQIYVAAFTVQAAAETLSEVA

Target: Glutamate carboxypeptidase 2 (Homo sapiens, UniProt Q04609)
Assay: Inhibition of PSMA
Method in brief: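 Purified PSMA in 50 mM Tris pH 7.4, diluted to give 15–20% substrate conversion without inhibitor. Substrate PAB-Glu-γ-Glu at 10 μM final. Five serial inhibitor dilutions spanning 10–90% inhibition. 15 min at 37 °C with shaking. Stopped with methanolic TFA, buffered with K2HPO4, centrifuged. Supernatant quantified by HPLC; IC50 calculated.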

`O=C(O)CCOP(=O)(O)N[C@@H](CCC(=O)O)C(=O)O` was tested, and the IC50 was 4.1 µM.
